Experimental data reported in patent publication US6936585B2, “Corticotropin releasing factor 2 receptor agonists” (priority 2002, dated 2005).

Tests used:
[1] = biological target: T1, CRF1R (Homo sapiens, UniProt P34998); assay: CRF1R agonist activation (EC50 / Emax), called comparative CRF binding; format: cell-based; details: for Emax: read-out: CRF1R Emax
T1 sequence (P34998 24-415): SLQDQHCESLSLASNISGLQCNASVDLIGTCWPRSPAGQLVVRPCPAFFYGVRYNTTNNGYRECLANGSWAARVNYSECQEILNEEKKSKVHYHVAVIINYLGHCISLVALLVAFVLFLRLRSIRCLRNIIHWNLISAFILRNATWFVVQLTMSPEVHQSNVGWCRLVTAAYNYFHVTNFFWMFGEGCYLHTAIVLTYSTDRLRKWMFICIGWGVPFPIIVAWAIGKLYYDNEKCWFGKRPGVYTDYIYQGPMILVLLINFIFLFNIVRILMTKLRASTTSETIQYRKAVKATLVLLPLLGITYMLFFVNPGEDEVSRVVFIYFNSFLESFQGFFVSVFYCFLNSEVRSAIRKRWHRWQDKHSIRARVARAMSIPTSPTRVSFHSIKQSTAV
Procedure, shortened: (§1)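 Read-out is Gαs-driven cAMP induction, quantified directly in lysates or through CRE-reporter gene expression, after treating CRF1R- or CRF2R-expressing cells with peptide. Vehicle-treated cells serve as the comparison.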

[2] = biological target: T2, CRF2R (Homo sapiens, UniProt Q13324); assay: CRF2R agonist activation (EC50 / Emax), called comparative CRF binding; format: cell-based; details: for Emax: read-out: CRF2R Emax
T2 sequence (Q13324 1-411): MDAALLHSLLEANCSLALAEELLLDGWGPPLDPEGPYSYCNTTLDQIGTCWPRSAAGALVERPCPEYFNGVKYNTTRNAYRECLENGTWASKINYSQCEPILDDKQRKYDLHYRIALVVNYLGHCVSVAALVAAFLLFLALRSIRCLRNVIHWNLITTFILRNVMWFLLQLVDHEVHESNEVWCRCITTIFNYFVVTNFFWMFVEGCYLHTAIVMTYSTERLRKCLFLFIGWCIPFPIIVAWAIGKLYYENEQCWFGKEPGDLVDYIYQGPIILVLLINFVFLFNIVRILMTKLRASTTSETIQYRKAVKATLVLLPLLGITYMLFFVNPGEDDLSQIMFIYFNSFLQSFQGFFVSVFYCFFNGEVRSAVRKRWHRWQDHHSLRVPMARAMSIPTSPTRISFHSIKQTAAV
Procedure, shortened: as §1

Row | Structure (SMILES) | EC50 ([1]; CRF1R EC50) [nM] | Emax [1] [%] | EC50 [2] [nM] | Emax [2] [%]
1 | CC[C@H](C)[C@H](NC(=O)[C@@H](NC(=O)[C@H](CC(=O)O)NC(=O)[C@H](CC(C)C)NC(=O)[C@H](CC(C)C)NC(=O)[C@H](CC(C)C)NC(=O)[C@H](CCCNC(=N)N)NC(=O)[C@H](CC(N)=O)NC(=O)[C@H](CC(N)=O)NC(=O)[C@H](C)NC(=O)[C@H](C)NC(=O)[C@H](CCC(N)=O)NC(=O)[C@H](CCC(N)=O)NC(=O)[C@H](CCCCN)NC(=O)[C@H](CCC(=O)O)NC(=O)[C@H](CCCCN)NC(=O)[C@H](CCC(=O)O)NC(=O)[C@H](CCC(N)=O)NC(=O)[C@H](CCCCN)NC(=O)[C@H](CCC(=O)O)NC(=O)[C@@H](NC(=O)[C@H](CCC(=O)O)NC(=O)[C@@H](NC(=O)[C@H](CCSC)NC(=O)[C@H](CCCCN)NC(=O)[C@H](CCCNC(=N)N)NC(=O)[C@H](CC(C)C)NC(=O)[C@H](CC(C)C)NC(=O)[C@H](Cc1c[nH]c2ccccc12)NC(=O)[C@H](CCC(N)=O)NC(=O)[C@@H]1CCCN1C(=O)[C@H](CC(C)C)NC(=O)[C@H](CC(=O)O)NC(=O)[C@@H](NC(=O)[C@H](CO)NC(=O)[C@@H](NC(=O)[C@@H]1CCCN1C(=O)[C@@H]1CCCN1C(=O)CNC(=O)[C@@H]1CCC(=O)N1)[C@@H](C)CC)[C@@H](C)CC)[C@@H](C)CC)[C@@H](C)CC)[C@@H](C)O)C(N)=O [compound 213] | ≥ 1000 | 76 | 22.3 | 99
2 | CC[C@H](C)[C@H](NC(=O)[C@@H](NC(=O)[C@H](CC(=O)O)NC(=O)[C@H](CC(C)C)NC(=O)[C@H](CC(C)C)NC(=O)[C@H](CC(C)C)NC(=O)[C@H](CCCNC(=N)N)NC(=O)[C@H](CC(N)=O)NC(=O)[C@H](CC(N)=O)NC(=O)[C@H](C)NC(=O)[C@H](C)NC(=O)[C@H](CCC(N)=O)NC(=O)[C@H](CCC(N)=O)NC(=O)[C@H](CCCCN)NC(=O)[C@H](CCC(=O)O)NC(=O)[C@H](CCCCN)NC(=O)[C@H](CCC(=O)O)NC(=O)[C@H](CCC(N)=O)NC(=O)[C@H](CCCCN)NC(=O)[C@H](CCC(=O)O)NC(=O)[C@@H](NC(=O)[C@H](CCC(=O)O)NC(=O)[C@@H](NC(=O)[C@H](CCSC)NC(=O)[C@H](CCCCN)NC(=O)[C@H](CCCNC(=N)N)NC(=O)[C@H](CC(C)C)NC(=O)[C@H](CC(C)C)NC(=O)[C@H](Cc1ccc(O)cc1)NC(=O)[C@@H]1CCCN1C(=O)[C@@H]1CCCN1C(=O)[C@H](CC(C)C)NC(=O)[C@H](CC(=O)O)NC(=O)[C@@H](NC(=O)[C@H](CO)NC(=O)[C@@H](NC(=O)[C@@H]1CCCN1C(=O)[C@@H]1CCCN1C(=O)CNC(=O)[C@@H]1CCC(=O)N1)[C@@H](C)CC)[C@@H](C)CC)[C@@H](C)CC)[C@@H](C)CC)[C@@H](C)O)C(N)=O [compound 57] |  | 12 |  | 46
3 | CC[C@H](C)[C@H](NC(=O)[C@@H](NC(=O)[C@H](CC(=O)O)NC(=O)[C@H](CC(C)C)NC(=O)[C@H](CC(C)C)NC(=O)[C@H](CC(C)C)NC(=O)[C@H](CCCNC(=N)N)NC(=O)[C@H](CC(N)=O)NC(=O)[C@H](CC(N)=O)NC(=O)[C@H](C)NC(=O)[C@H](C)NC(=O)[C@H](CCC(N)=O)NC(=O)[C@H](CCC(N)=O)NC(=O)[C@H](CCCCN)NC(=O)[C@H](CCC(=O)O)NC(=O)[C@H](CCCCN)NC(=O)[C@H](CCC(=O)O)NC(=O)[C@H](CCC(N)=O)NC(=O)[C@H](CCCCN)NC(=O)[C@H](CCC(=O)O)NC(=O)[C@@H](NC(=O)[C@H](CCC(=O)O)NC(=O)[C@@H](NC(=O)[C@H](CCSC)NC(=O)[C@H](CCCCN)NC(=O)[C@H](CCCNC(=N)N)NC(=O)[C@H](CC(C)C)NC(=O)[C@H](CC(C)C)NC(=O)[C@H](Cc1ccccc1)NC(=O)[C@@H](NC(=O)[C@@H]1CCCN1C(=O)[C@H](CC(C)C)NC(=O)[C@H](CC(=O)O)NC(=O)[C@@H](NC(=O)[C@H](CO)NC(=O)[C@@H](NC(=O)[C@@H]1CCCN1C(=O)[C@@H]1CCCN1C(=O)CNC(=O)[C@@H]1CCC(=O)N1)[C@@H](C)CC)[C@@H](C)CC)[C@@H](C)O)[C@@H](C)CC)[C@@H](C)CC)[C@@H](C)O)C(N)=O [compound 44] |  | 64 |  | 87
4 | CC[C@H](C)[C@H](NC(=O)[C@@H](NC(=O)[C@H](C)NC(=O)[C@H](CC(C)C)NC(=O)[C@H](CC(C)C)NC(=O)[C@H](CC(C)C)NC(=O)[C@H](C)NC(=O)[C@H](CC(N)=O)NC(=O)[C@H](CC(N)=O)NC(=O)[C@H](C)NC(=O)[C@H](C)NC(=O)[C@H](CCC(N)=O)NC(=O)[C@H](CCC(N)=O)NC(=O)[C@H](CCCCN)NC(=O)[C@H](CCC(=O)O)NC(=O)[C@H](CCCCN)NC(=O)[C@H](CCC(=O)O)NC(=O)[C@H](CCC(N)=O)NC(=O)[C@H](CCCCN)NC(=O)[C@H](CCC(=O)O)NC(=O)[C@@H](NC(=O)[C@H](CCC(=O)O)NC(=O)[C@@H](NC(=O)[C@H](CCSC)NC(=O)[C@H](CCCCN)NC(=O)[C@H](CCCNC(=N)N)NC(=O)[C@H](CC(C)C)NC(=O)[C@H](CC(C)C)NC(=O)[C@H](Cc1ccc(O)cc1)NC(=O)[C@H](CC(C)C)NC(=O)[C@@H]1CCCN1C(=O)[C@H](CC(C)C)NC(=O)[C@H](CC(=O)O)NC(=O)[C@@H](NC(=O)[C@H](CO)NC(=O)[C@@H](NC(=O)[C@@H]1CCCN1C(=O)[C@@H]1CCCN1C(=O)CNC(=O)[C@@H]1CCC(=O)N1)[C@@H](C)CC)[C@@H](C)CC)[C@@H](C)CC)[C@@H](C)CC)[C@@H](C)O)C(N)=O [compound 245] |  | 100 |  | 93
5 | CC[C@H](C)[C@H](NC(=O)[C@@H](NC(=O)[C@H](CC(=O)O)NC(=O)[C@H](CC(C)C)NC(=O)[C@H](CC(C)C)NC(=O)[C@H](CC(C)C)NC(=O)[C@H](CCCNC(=N)N)NC(=O)[C@H](CC(N)=O)NC(=O)[C@H](CC(N)=O)NC(=O)[C@H](C)NC(=O)[C@H](C)NC(=O)[C@H](CCC(N)=O)NC(=O)[C@H](CCC(N)=O)NC(=O)[C@H](CCCCN)NC(=O)[C@H](CCC(=O)O)NC(=O)[C@H](CCCCN)NC(=O)[C@H](CCC(=O)O)NC(=O)[C@H](CCC(N)=O)NC(=O)[C@H](CCCCN)NC(=O)[C@H](CCC(=O)O)NC(=O)[C@@H](NC(=O)[C@H](CCC(=O)O)NC(=O)[C@@H](NC(=O)[C@H](CCSC)NC(=O)[C@H](CCCCN)NC(=O)[C@H](CCCNC(=N)N)NC(=O)[C@H](CC(C)C)NC(=O)[C@H](CC(C)C)NC(=O)[C@H](Cc1ccccc1)NC(=O)[C@@H](NC(=O)[C@@H]1CCCN1C(=O)[C@H](CC(C)C)NC(=O)[C@H](CC(=O)O)NC(=O)[C@@H](NC(=O)[C@H](CO)NC(=O)[C@@H](NC(=O)[C@@H]1CCCN1C(=O)[C@@H]1CCCN1C(=O)CNC(=O)[C@@H]1CCC(=O)N1)[C@@H](C)CC)[C@@H](C)CC)[C@@H](C)CC)[C@@H](C)CC)[C@@H](C)CC)[C@@H](C)O)C(N)=O [compound 29] |  | 79 |  | 100
